Here are results for 1 compound from PubChem BioAssay AID686979 (National Center for Advancing Translational Sciences (NCATS), 2013).

The structures appear in SMILES notation. The entries are a selection whose mix differs from that of the whole data set. Inconclusive results are not listed. The source made the active and inactive calls. Calls follow the shape of the dose curve; as a rule, active = well fitted inhibition curve with a large enough effect; inconclusive = small, poorly fitted or top-dose-only effect; inactive = flat fitted curve, though single readings scatter.
% is scaled to controls: 0 for no effect and ±100 for the full control effect.

A short description of this assay: qHTS for Inhibitors of human tyrosyl-DNA phosphodiesterase 1 (TDP1): qHTS in cells in presence of CPT. Also: nearly all actives have a fitted effect of over 55% in size. Conditions: chicken DT40 Tdp1-/-;hTDP1 cells + 20 nM CPT, ATP luminescence, 48 h; at 46.2 µM (top of the series). Background: Quantitative high-throughput screening tests each substance at several concentrations.
Turning to `CN(C)C(=O)OCCc1n(C)cc[n+]1C`, the activity change, negative = growth inhibition was inactive: -13.7%.
